AlphaSeq binding of Ab-14 heavy chain variants to a spike HR2 peptide

All variants were tested on one target, the spike HR2 peptide PDVDLGDISGINAS (SARS-CoV-2).

Each scFv is VH, the linker GGGGSGGGGSGGGGS, VL, as in the parent Ab-14, and differs from it in the CDRs of the heavy chain only.
VH: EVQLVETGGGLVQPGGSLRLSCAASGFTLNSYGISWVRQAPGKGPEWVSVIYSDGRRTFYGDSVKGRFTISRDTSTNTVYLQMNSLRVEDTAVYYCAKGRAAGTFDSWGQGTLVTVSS
VL: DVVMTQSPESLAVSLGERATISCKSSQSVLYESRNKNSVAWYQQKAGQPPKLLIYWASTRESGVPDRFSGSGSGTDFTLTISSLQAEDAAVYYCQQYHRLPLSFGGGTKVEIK

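The starting antibody came from a phage panning campaign against this peptide. AAYL49 was designed without a model: most single CDR substitutions and a random sample of double and triple ones. In AlphaSeq, yeast of one mating type display the scFv and yeast of the other type display the target. The frequency of each diploid, read from paired DNA barcodes, reflects how well the two displayed proteins bind. Each replicate has its own calibration line, from reference interactions of the BCL2 family. Each pool was mated in three replicate cultures.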

The parent's heavy chain CDRs are GFTLNSYGIS, VIYSDGRRTFYGDSVK, GRAAGTFDS; each variant's own CDRs replace them letter for letter. Every variant below is changed at D54 of the VH (sequential numbering). Scale: log10 of Kd in nM, estimated from mating counts; low values are strong binders. "nd" marks a missing value. The strain was present, yet no cells mated with the target were sequenced in that replicate, which points to weak or no binding. Parent in this assay: reference entry 0.65, copy in this library 4.11 (one replicate of three). Nonspecific signal, from three strains lacking the peptide, appeared in 15% of pairings of library AAYL49, centred on 4.06 (5% of these signals below 2.83); values are not corrected for it. The control count says in how many pairings with the empty strains this scFv gave a signal.

- GFTLNSQGIS / VIYSVGRETFYGDSVK / GRAAGTFDS -> nd, nd, nd (controls 1 of 9)
- VFTLNSYGIS / VIYSWGRRTFYGDSVK / GRPAGTFDS -> nd, nd, nd (controls 0 of 9)
- GFTLNSYGIS / VIYSHGRWTFYGDSVK / GRAIGTFDS -> nd, nd, nd (controls 0 of 9)
- GFTLNSYGIS / RIYSAGPRTFYGDSVK / GRAAGTFDS -> nd, nd, nd (controls 0 of 9)
- GFTLNSYGIS / VIYSEMRRTLYGDSVK / GRAAGTFDS -> nd, nd, nd (controls 0 of 9)
- GFFLNSYGIS / VIYSWGRRTFYGDSVK / GRANGTFDS -> 4.11, 2.99, nd (controls 1 of 9)
- GFTLWSYNIS / VIYSCGRRTFYGDSVK / GRAAGTFDS -> nd, 5.34, nd (controls 3 of 9)
- GFTLNSYGIS / VIYHEGRRTFYGDSVK / GRAAVTFDS -> nd, nd, nd (controls 0 of 9)
- GFTKNSYGIF / VIYSLGRRTFYGDSVK / GRAAGTFDS -> nd, nd, nd (controls 0 of 9)
- GFTLNSYGIS / VIYSHGRWTMYGDSVK / GRAAGTFDS -> nd, 5.32, 4.13 (controls 2 of 9)
- GFTLNSYGAS / VIYSCGRRTCYGDSVK / GRAAGTFDS -> nd, nd, nd (controls 0 of 9)
- GFTLNSIGIS / VAYSQGRRTFYGDSVK / GRAAGTFDS -> nd, nd, nd (controls 0 of 9)
- YFFLNSYGIS / VIYSHGRRTFYGDSVK / GRAAGTFDS -> nd, nd, nd (controls 0 of 9)
- GFGLNSYGIS / VIYSAGRRTFYGDSVK / GRAAYTFDS -> nd, nd, nd (controls 0 of 9)
- GFTYHSYGIS / VIYSIGRRTFYGDSVK / GRAAGTFDS -> nd, nd, nd (controls 0 of 9)
- GFTLNSYGIS / VIYSKGSRTFYGDSVK / YRAAGTFDS -> nd, nd, nd (controls 0 of 9)
- GFTLNSYGIS / RIYSSGRRTFYGDSAK / GRAAGTFDS -> nd, 3.79, nd (controls 4 of 9)
- GFTLNSYGIS / VIYSQDRRTFYTDSVK / GRAAGTFDS -> 3.82, nd, nd (controls 0 of 9)
- GFTLNSYGIS / VIYSLGRRWFYGDSVK / GRAAGTFDS -> nd, 4.63, 5.86 (controls 2 of 9)
- GFTLNSYGIS / VIYSCGRRTFYGDSVK / GRAAGTFDS -> nd, 5.18, 5.86 (controls 4 of 9)
- GFTLNSYGIS / VIYSMGRRTFYGDSVK / GNQAGTFDS -> nd, nd, nd (controls 0 of 9)
- GFTLNSYGIS / VIYSWGRRTFYGDSVE / GRAAGAFDS -> nd, nd, nd (controls 0 of 9)
- GFTLNSYGIS / VIYSCGRRTFFHDSVK / GRAAGTFDS -> nd, nd, nd (controls 0 of 9)
- GFTLNSYGIS / VIYSEGRRTFYGDSVK / GRAAGVFDC -> nd, nd, nd (controls 2 of 9)
- GFTLNSYQIN / VIYSHGRRTFYGDSVK / GRAAGTFDS -> nd, nd, nd (controls 1 of 9)
- GFTLDSYGIS / VIYSEGRRTFYGDSVK / GRAAGTFDN -> nd, nd, nd (controls 0 of 9)
- GFTLNSYGIS / VFYSPGRRTFYGDSVG / GRAAGTFDS -> nd, nd, nd (controls 0 of 9)
- GFTLNSYGIS / VIYSMGRLTFYGDSVK / GRAAGTFDS -> nd, nd, 4.19 (controls 3 of 9)
- GFTLNSYGIS / VIYSQGRRTFYPDSVK / GRAWGTFDS -> nd, nd, nd (controls 0 of 9)
- GFTLNSYGIS / VIYSQGRRTFYGDSVK / GRAAGTFFH -> nd, nd, nd (controls 1 of 9)
- GFTLNSYGIS / VIYSIGRRTFYGDSHF / GRAAGTFDS -> 4.09, 4.60, 4.41 (controls 6 of 9)
- GFTLNSYSIS / VIYSHGRRPFYGDSVK / GRAAGTFDS -> 4.46, nd, 5.26 (controls 1 of 9)
- GFTLNSYGIS / VIYAMGRRTFYDDSVK / GRAAGTFDS -> nd, 3.80, 4.14 (controls 1 of 9)

5 of these entries, quoted again:

CDR-H1,CDR-H2,CDR-H3,"log10 Kd, replicates",empty controls
GFTLNSQGIS,VIYSVGRETFYGDSVK,GRAAGTFDS,"nd, nd, nd",1/9
GFTLNSYGIS,VIYAMGRRTFYDDSVK,GRAAGTFDS,"nd, 3.80, 4.14",1/9
GFFLNSYGIS,VIYSWGRRTFYGDSVK,GRANGTFDS,"4.11, 2.99, nd",1/9
VFTLNSYGIS,VIYSWGRRTFYGDSVK,GRPAGTFDS,"nd, nd, nd",0/9
GFTLNSYSIS,VIYSHGRRPFYGDSVK,GRAAGTFDS,"4.46, nd, 5.26",1/9

Data: MIT Lincoln Laboratory AlphaSeq set, Engelhart et al. 2022, doi:10.1038/s41597-022-01779-4, as distributed in FLAb.